# Data from US20260216238A1, “TETRATHIOMOLYBDIC ACID FOR USE IN TREATING COPPER METABOLISM-ASSOCIATED DISEASES OR DISORDERS (WILSON DISEASE)” (Alexion Pharmaceuticals, Inc., priority 2023, published 2026).
# System: patients with Wilson disease (WD)
# Conditions: in vivo
substance,measurement,value
bis-choline tetrathiomolybdate [TTM],"Anemia, E",7
same,"Anemia, N (%)",6 (4.4)
same,"Leukopenia, E",3
same,"Leukopenia, N (%)",2 (1.5)
same,"Neutropenia, E",6
same,"Neutropenia, N (%)",6 (4.4)
same,"Neutrophil count decreased, E",4
same,"Neutrophil count decreased, N (%)",2 (1.5)
same,"Thrombocytopenia, E",2
same,"Thrombocytopenia, N (%)",1 (0.7)
same,participants with Grade 1 hemoglobin,41.6%
same,participants with Grade 1 platelets,24.1%
same,participants with Grade 3 neutrophils,6.6%
